These are literature values, as cited in patent US20110183366A1, “Methods for achieving a protective ACE2 expression level to treat kidney disease and hypertension” (priority 2004, published 2011).

The target of the data set is angiotensin II type 1 receptor (Homo sapiens, UniProt P30556). The settings on record: selectivity AT1 over AT2, 'reportedly'; cited from earlier work.

Take `CCCc1nc2c(C)cc(-c3nc4ccccc4n3C)cc2n1Cc1ccc(-c2ccccc2C(=O)O)cc1` [telmisartan]: the “affinity for the type 1 receptor relative to the type 2 receptor” value is recorded as “about 3,000 times”.

For `CCCCC(=O)N(Cc1ccc(-c2ccccc2-c2nnn[nH]2)cc1)[C@H](C(=O)O)C(C)C` [Valsartan, valsartan], the “affinity for the type 1 receptor relative to the type 2 receptor” value is on record as “about 20,000 times”.
